Measurements as given in article PMC10690091 (Cancer Research, 2023).

Sequences of proteins named here, by UniProt entry; tags and fusion partners are left off. Residues count along the entry.
UniProt P03372, 311-547 Y537S limits assumed: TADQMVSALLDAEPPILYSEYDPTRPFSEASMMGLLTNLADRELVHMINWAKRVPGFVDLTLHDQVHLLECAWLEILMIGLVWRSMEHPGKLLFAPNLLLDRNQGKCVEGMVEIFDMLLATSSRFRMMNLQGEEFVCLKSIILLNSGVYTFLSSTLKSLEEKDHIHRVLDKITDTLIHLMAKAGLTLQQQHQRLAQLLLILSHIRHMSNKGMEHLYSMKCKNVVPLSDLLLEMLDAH

Target: Y537S mutant ERα ligand-binding domain (Homo sapiens, UniProt P03372, Y537S)
Assay: LanthaScreen TR-FRET competition binding, Y537S
Details: Y537S ESR1m

- binding affinity relative to ESR1wt: Some loss of affinity
SMILES: C[C@]12CC[C@@H]3c4ccc(O)cc4C[C@@H](CCCCCCCCC[S+]([O-])CCCC(F)(F)C(F)(F)F)[C@H]3[C@@H]1CC[C@@H]2O (stereo partly shown) [fulvestrant, reference compound]
